Assay results reported in PubChem BioAssay AID463141 (The Scripps Research Institute Molecular Screening Center, 2010).
The entries are a selection whose mix differs from that of the whole data set. Activity calls are given as the source filed them.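 Rule for the calls: active = activation above the mean of all tested compounds plus 3 SD (cut at about 21% in these data); inactive = the rest.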

Chains of the proteins cited; added tags and fusions are not shown. Lines headed by an entry give the natural chain unless they say otherwise; changes in a name come on top.
UniProt P42574: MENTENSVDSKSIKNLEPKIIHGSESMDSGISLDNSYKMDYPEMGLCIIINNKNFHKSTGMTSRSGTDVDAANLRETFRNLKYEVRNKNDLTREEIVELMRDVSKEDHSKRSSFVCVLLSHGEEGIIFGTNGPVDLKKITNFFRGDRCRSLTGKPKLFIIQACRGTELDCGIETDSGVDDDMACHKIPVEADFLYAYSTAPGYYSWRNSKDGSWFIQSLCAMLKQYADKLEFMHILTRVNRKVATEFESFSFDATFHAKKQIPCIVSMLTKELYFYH

Target: Caspase-3 (Homo sapiens) (UniProt P42574)
Assay: procaspase-3 enzyme activation – biochemical, absorbance, PC-3 D3A mutant, single concentration, primary screen (AID 463141);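 note: 0% = DMSO alone and 100% = DMSO wells spiked with extra 5 µM PC-3 D3A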
Details: recombinant procaspase-3 D3A, Ac-DEVD-pNA absorbance 405 nm; at 8.5 µM; stronger effect = higher value

Compound	activation
O=[As](O)(c1cccs1)c1cccs1	inactive: -9.51%
Cc1ccc(OCC(=O)OC2CN3CCC2CC3)cc1 (stereo unspecified)	inactive: 7.26%
NS(=O)(=O)c1cccc(NC(=O)COC(=O)C(O)(c2ccccc2)c2ccccc2)c1	inactive: 8.28%
O=P1(Nc2ccc(Br)cn2)COc2ccccc2OC1	inactive: -5.76%
O=P1(Nc2ncccn2)COc2ccccc2OC1	inactive: 7.08%
CN(C)C1(CNC(=O)c2ccc(S(C)(=O)=O)cc2)CCCCC1	inactive: 1.88%
O=C(/C=C/c1ccccc1)OC1CN2CCC1CC2 (stereo unspecified)	inactive: -6.22%
Cc1nn(-c2ccccc2)c2c1P(=O)(N1CCOCC1)N(C)C(c1ccccc1)=N2 (stereo unspecified)	inactive: 3.35%
Cc1ccc(C(=O)OC2CN3CCC2CC3)cc1 (stereo unspecified)	inactive: 0.46%
CC1CCC(C(C)C)C(OP(=O)(Nc2ccccn2)c2ccccc2)C1 (stereo unspecified)	inactive: 2.59%
CN(C(=O)Cc1ccc(Cl)c(Cl)c1)[C@@H]1CCCC[C@H]1N1CCCC1	inactive: 2.48%
CC(C)/C=N\N=C(\N)N[N+](=O)[O-]	inactive: -3.68%
O=[As](O)(c1ccccc1Br)c1ccccc1Br	inactive: -8.49%
CC1(CBr)Cn2c(nc3ccccc3c2=O)S1 (stereo unspecified)	inactive: -0.23%
COc1ccccc1CNC(=O)COC(=O)C(O)(c1ccccc1)c1ccccc1	inactive: 5.27%
Clc1n[nH]nc1-c1nn[nH][15n]1	inactive: 7.14%
CC(C)(C)C(=O)NC(Sc1ncccn1)C(Cl)(Cl)Cl (stereo unspecified)	inactive: -23.2%
CCC1=CC2Cc3nc4ccc(Cl)cc4c(N)c3C(C1)C2 (stereo unspecified)	inactive: -6.95%
O=P1(Nc2ccccn2)COc2ccccc2OC1	inactive: 0.71%
CCOP(=O)(NC(=NC(C)c1ccccc1)NC(C)c1ccccc1)OCC (stereo unspecified)	inactive: 5.1%
CCOP(=O)(Nc1ccc(C)cn1)OCC	inactive: -5.19%
CN(CCCl)Cc1cc(Cl)c(NC2=NCCN2)c(Cl)c1	inactive: -4.56%
COc1cc(C2NCCC3(OCCO3)C2(C)C)cc(OC)c1OC (stereo unspecified)	inactive: 11.5%

Compound	activation
CCOP(=O)(Nc1cccc2ccccc12)OCC	inactive: -1.27%
Nc1cccc2c([As](=O)(O)O)cccc12	inactive: 3.06%
Cc1ccc(NCCc2c([N+](=O)[O-])cc([N+](=O)[O-])cc2[N+](=O)[O-])cc1	inactive: -3.61%
CCCOP(=S)(Nc1nc(N)cc(=O)[nH]1)OCCC	inactive: 4.65%
Cc1cccc(OCC(=O)OC2CN3CCC2CC3)c1 (stereo unspecified)	inactive: -0.13%
O=[As](O)(c1cccc(O)c1)c1cccc(O)c1	inactive: -7.52%
O=C(OC1CN2CCC1CC2)c1ccc(Cl)cc1 (stereo unspecified)	inactive: -9.31%
O=[As](O)(O)c1cccnc1	inactive: -3.24%
COc1cc(C(=O)NCC2(N3CCOCC3)CCCCC2)cc(Cl)c1OC(C)C	inactive: 9.25%
CS(=O)(=O)c1ccc(Cl)c(NC(=O)COC(=O)C(O)(c2ccccc2)c2ccccc2)c1	inactive: 3.28%
N#CCCN(C(=O)COC(=O)C(O)(c1ccccc1)c1ccccc1)c1ccc(F)cc1	inactive: 3.38%
CN(C(=O)Cc1ccccc1)[C@@H]1CC[C@]2(CCCO2)C[C@H]1N1CCCC1	inactive: -9.67%
CCOP1(=S)c2c(C)nn(CCC#N)c2N=C(c2ccc(F)cc2)N1C (stereo unspecified)	inactive: -7.14%
O=[N+]([O-])c1ccc2c(c1)nnn2O	inactive: 6.11%
CN(C)C(=O)c1cc([N+](=O)[O-])cc2c1-c1c(cc([N+](=O)[O-])cc1[N+](=O)[O-])C2=O	inactive: -11.1%
CN(C(=O)Cc1ccc(Cl)c(Cl)c1)[C@H]1CC[C@@]2(CCCO2)C[C@@H]1N1CCCC1	inactive: -2.72%
NC(=O)Nc1ccc([As](=O)(O)O)cc1	inactive: 5.8%
O=C(O)COc1ccc([As](=O)(O)O)cc1[N+](=O)[O-]	inactive: -6.1%
Nc1ccccc1[As](=O)(O)c1ccccc1	inactive: 0.61%
CCOP1(=S)c2c(C)nn(CCC#N)c2N=C(c2ccccc2F)N1C (stereo unspecified)	inactive: 14%
O=P(Nc1nccs1)(Oc1ccccc1)Oc1ccccc1	inactive: -3.55%
O=P(Nc1nccs1)(c1ccccc1)c1nc2ccccc2s1 (stereo unspecified)	inactive: -26.8%
CS(=O)(=O)c1cc([N+](=O)[O-])c2no[n+]([O-])c2c1	inactive: -4.09%
